SMILES strings stand for the structures.

For one compound, t1/2 results are on record in ChEMBL document CHEMBL5046283, “Design, Synthesis, and Biological Evaluation of the First Inhibitors of Oncogenic CHD1L” (J Med Chem, 2022).

This data set can be described thus: Microsomal stability in CD-1 mouse liver microsomes assessed as half life preincubated with NADPH for 5 mins followed by compound addition and measured upto 60 mins by LC-MS/MS analysis. The settings on record: 1 h. The class given is ADME, Microsome.

For `Cc1cc(Nc2ccc(NC(=O)Cc3cc(Br)cs3)cc2)nc(N2CCCC2)n1`, the t1/2 amounted to 2.17 h.
